Source: EP4821933A1, “TARTRATE SALT OF 1-((3S,4R)-3-((2-((1-ETHYL-1H-PYRAZOL-4-YL)AMINO)-7H-PYRROLO[2,3-D]PYRIMIDIN-4-YL)OXY)-4-FLUOROPIPERIDIN-1-YL)PROP-2-EN-1-ONE, CRYSTALLINE FORM THEREOF, AND METHOD FOR PREPARING SAME” (dated 2026)
Structures can show the parent of a compound that is named as a salt.

Key:
[1] = Hygroscopicity analysis (DVS Hygroscopicity); conditions: 0~95% RH at 25°C
Description: The physical properties of the free base (Compound 1) obtained in Preparation Example and the tartrate salt obtained in Example 1 were measured as follows. • 1) Melting Point: Measured with MP70 available from Mettler Toledo. The sample was collected through a capillary, and then allowed to fall freely using a specified glass rod, and repeated several times to ensure that there was no empty space in the capillary tube. Then, the transmittance was measured starting from 168°C and increasing the temperature by 1°C per minute, and the melting point was confirmed. The measurement results are shown in Table 2 below. • 2) Thermogravimetric analysis: Measured using TGA2 available from Mettler Toledo. 50 mg of the sample was placed in an Al2O3 pan, and the temperature was increased from 30.0°C at a rate of 10.00°C per minute to confirm the weight change up to 600.0 °C. As a result of the measurement, three weight changes were confirmed at the midpoint of 50.4°C (dehydration), 206.7°C (endothermic), and 378.4°C (exothermic behavior), and specific thermogravimetric analysis results are shown in FIG. 4. • 3) Hygroscopicity analysis (DVS Hygroscopicity): Measured using DVS Adventure available from Surface Measurement Systems. The sample was exposed to 0~95% RH using DVS at 25°C to confirm the hygroscopicity. Depending on the degree of moisture adsorption, it was divided into Non-hygroscopic (0~0.12%)/Slightly Hygroscopic (0.2~2%)/Moderately Hygroscopic (2.0~15.0%)/Very Hygroscopic (>15.0%). The measurement results are shown in Table 2 below. • 4) Water Solubility: Measured by HPLC available from Waters. The sample was supersaturated with water at 23~26°C, stirred for at least 18 hours, and then allowed to stand for at least 18 hours. The supernatant extracted using a centrifuge was filtered through a 0.45 µm filter. The HPLC area of the filtrate was measured to confirm the solubility. The measurement results are shown in Table 2 below. • 5) Stability: The purity was measured after 2 weeks under the accelerated testing criteria of 40±2°C/75±5% relative humidity. About 1 mg of the tartaric acid salt solid obtained in Example 1 was dissolved in 1 ml of 100% methanol, and then 700 µl of acetonitrile was added to 300 µl of this solution, diluted, and the purity was measured by HPLC.

Water solubility by HPLC = conditions: water at 23~26°C, stirred at least 18 hours, allowed to stand at least 18 hours, 0.45 µm filtered
Description: (§1) The physical properties of the free base (Compound 1) obtained in Preparation Example and the tartrate salt obtained in Example 1 were measured as follows. • 1) Melting Point: Measured with MP70 available from Mettler Toledo. The sample was collected through a capillary, and then allowed to fall freely using a specified glass rod, and repeated several times to ensure that there was no empty space in the capillary tube. Then, the transmittance was measured starting from 168°C and increasing the temperature by 1°C per minute, and the melting point was confirmed. The measurement results are shown in Table 2 below. • 2) Thermogravimetric analysis: Measured using TGA2 available from Mettler Toledo. […] As a result of the measurement, three weight changes were confirmed at the midpoint of 50.4°C (dehydration), 206.7°C (endothermic), and 378.4°C (exothermic behavior), and specific thermogravimetric analysis results are shown in FIG. 4. • 3) Hygroscopicity analysis (DVS Hygroscopicity): Measured using DVS Adventure available from Surface Measurement Systems. […] The measurement results are shown in Table 2 below. • 4) Water Solubility: Measured by HPLC available from Waters. […] The HPLC area of the filtrate was measured to confirm the solubility. […]

[2] = Pharmacokinetic evaluation (dog PK), single oral dose; conditions: Beagle dog, fasted; for Area under the blood concentration curve AUClast: 24-hour sampling
Description: 6) Pharmacokinetic evaluation (dog PK): The free base and tartrate salt prepared in Preparation Example were orally administered in a single dose to beagle dogs as experimental animals, and blood pharmacokinetic evaluation was carried out.
Three males (1.8 years old ~ 2.8 years old, KPC) were used for each dose. Each individual used a healthy animal suitable for the experiment after a 1-week quarantine and acclimatization period. After fasting, the drug was administered, and the first blood collection was performed immediately before administration, and a total of 10 blood collections were performed over a 24-hour period. The collected blood was centrifuged, and dispensed into plasma supernatants, after which the peak area ratio of the test substance to the peak area of the internal standard substance was extrapolated to the calibration curve to calculate the blood concentration.

[3] = Stability under accelerated testing criteria (HPLC purity); conditions: purity by HPLC after 2 weeks at 40±2°C/75±5% relative humidity
Description: as §1

[4] = class by degree of moisture adsorption
[5] = single oral dose 50 mg/kg, 50 mg/kg
[6] = single oral dose 150 mg/kg, listed as Free base, 150 mg/kg
[7] = single oral dose 150 mg/kg, listed as free base, 150 mg/kg
[8] = single oral dose 100 mg/kg, listed as Tartrate salt, 100 mg/kg
[9] = single oral dose 100 mg/kg, listed as tartrate salt, 100 mg/kg

Hygroscopicity ([1]; degree of moisture adsorption) | Water solubility (Water solubility by HPLC) | Area under the blood concentration curve AUClast [2, 5] | Maximum blood concentration Cmax [2, 5] | Area under the blood concentration curve AUClast [2, 6] | Area under the blood concentration curve AUClast [2, 7] | Maximum blood concentration Cmax [2, 6] | Maximum blood concentration Cmax [2, 7] | Stability [3] | Area under the blood concentration curve AUClast [2, 8] | Area under the blood concentration curve AUClast [2, 9] | Maximum blood concentration Cmax [2, 8] | Maximum blood concentration Cmax [2, 9] | Structure (SMILES) | Hygroscopicity [1, 4]
6% | 568 µg/mL | 9,377 ± 8,852 ng·h/mL | 1,740 ± 806 ng/mL | 5,370 ± 4,287 ng·h/mL | 5,370 ng·h/mL | 1,197 ± 728 ng/mL | 1,197 ng/mL | 94.87% (2 weeks) |  |  |  |  | C=CC(=O)N1CC[C@@H](F)[C@@H](Oc2nc(Nc3cnn(CC)c3)nc3[nH]ccc23)C1 [Free base of Preparation Example] | Moderately Hygroscopic (Moderately Hygroscopic (2.0~15.0%))
3% |  | 11,707 ± 5,687 ng·h/mL | 3,534 ± 1,201 ng/mL |  |  |  |  | 99.26% (2 weeks) | 34,518 ± 934 ng·h/mL | 34,518 ng·h/mL | 6,423 ± 1,792 ng/mL | 6,423 ng/mL | C=CC(=O)N1CC[C@@H](F)[C@@H](Oc2nc(Nc3cnn(CC)c3)nc3[nH]ccc23)C1 [Tartrate salt of Example] | Moderately Hygroscopic (Moderately Hygroscopic (2.0~15.0%))
